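In this assay, cells in 96-well plates receive the compound at five concentrations for 48 hours. Endpoints are linearly interpolated between the surrounding concentrations. GI50 marks 50% less growth. TGI denotes the concentration required for complete inhibition of growth.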
Experiments:
Assay in all cases: NCI anticancer screen, dose series, 48 h
[1] = tested on: NCI-H460 lung
[2] = tested on: MCF7 breast
[3] = tested on: A498 renal
[4] = tested on: SF-539 CNS
[5] = tested on: HT29 colon
[6] = tested on: SF-268 CNS
[7] = tested on: SNB-75 CNS
[8] = tested on: SN12C renal
[9] = tested on: MDA-N
[10] = tested on: NCI-H322M lung
[11] = tested on: SK-MEL-2 melanoma
[12] = tested on: UACC-257 melanoma
[13] = tested on: UO-31 renal
[14] = tested on: HCC-2998 colon
[15] = tested on: MALME-3M melanoma
[16] = tested on: HOP-92 NSCLC
[17] = tested on: SR leukemia
[18] = tested on: NCI-H522 lung
[19] = tested on: NCI-H23 lung
[20] = tested on: M14 melanoma
[21] = tested on: 786-0 renal
[22] = tested on: OVCAR-4 ovarian
[23] = tested on: SK-MEL-5 melanoma
[24] = tested on: MOLT-4 leukemia
[25] = tested on: RPMI-8226 leukemia
[26] = tested on: PC-3 prostate
[27] = tested on: MDA-MB-435
[28] = tested on: SW-620 colon
[29] = tested on: OVCAR-3 ovarian
[30] = tested on: A549 NSCLC
[31] = tested on: OVCAR-5 ovarian
[32] = tested on: CAKI-1 renal
[33] = tested on: SNB-19 CNS
[34] = tested on: TK-10 renal
[35] = tested on: K-562 leukemia
[36] = tested on: HCT-15 colon
[37] = tested on: HL-60(TB) leukemia
[38] = tested on: DU-145 prostate
[39] = tested on: CCRF-CEM leukemia
[40] = tested on: MDA-MB-231 breast
[41] = tested on: SF-295 CNS
[42] = tested on: KM12 colon
[43] = tested on: T-47D breast
[44] = tested on: U251 CNS
[45] = tested on: HS 578T breast
[46] = tested on: HOP-62 NSCLC
[47] = tested on: UACC-62 melanoma
[48] = tested on: OVCAR-8 ovarian
[49] = tested on: EKVX NSCLC
[50] = tested on: HCT-116 colon
[51] = tested on: SK-OV-3 ovarian
[52] = tested on: BT-549 breast
[53] = tested on: ACHN renal
[54] = tested on: LOX IMVI melanoma
[55] = tested on: COLO 205 colon
[56] = tested on: NCI/ADR-RES ovarian
[57] = tested on: RXF 393 renal
[58] = tested on: IGROV1 ovarian
[59] = tested on: NCI-H226 lung
[60] = tested on: SK-MEL-28 melanoma

`COP(=O)(OC)N(C)[Si](C)(C)C` showed a GI50 [1] of over 100 µM, a TGI [1] of over 100 µM and a GI50 [2] of over 100 µM. The TGI [2] was over 100 µM, the GI50 [3] was over 100 µM and the TGI [3] was over 100 µM. It also gave a GI50 [4] of over 100 µM, a TGI [4] of over 100 µM and a GI50 [5] of over 100 µM. It also gave a TGI [5] of over 100 µM, a GI50 [6] of over 100 µM and a TGI [6] of over 100 µM. For the same molecule, the GI50 [7] was 84.6 µM, the TGI [7] was over 100 µM and the GI50 [8] was over 100 µM. It also gave a TGI [8] of over 100 µM, a GI50 [9] of over 100 µM and a TGI [9] of over 100 µM. The GI50 [10] was over 100 µM, the TGI [10] was over 100 µM and the GI50 [11] was over 100 µM. It also gave a TGI [11] of over 100 µM, a GI50 [12] of over 100 µM and a TGI [12] of over 100 µM. For the same molecule, the GI50 [13] was over 100 µM, the TGI [13] was over 100 µM and the GI50 [14] was over 100 µM. It also gave a TGI [14] of over 100 µM, a GI50 [15] of over 100 µM and a TGI [15] of over 100 µM. It also gave a GI50 [16] of over 100 µM, a TGI [16] of over 100 µM and a GI50 [17] of over 100 µM. It also gave a TGI [17] of over 100 µM, a GI50 [18] of over 100 µM and a TGI [18] of over 100 µM. The GI50 [19] was over 100 µM, the TGI [19] was over 100 µM and the GI50 [20] was over 100 µM. The TGI [20] was over 100 µM, the GI50 [21] was over 100 µM and the TGI [21] was over 100 µM. It also gave a GI50 [22] of over 100 µM, a TGI [22] of over 100 µM and a GI50 [23] of over 100 µM. For the same molecule, the TGI [23] was over 100 µM, the GI50 [24] was over 100 µM and the TGI [24] was over 100 µM. For the same molecule, the GI50 [25] was over 100 µM, the TGI [25] was over 100 µM and the GI50 [26] was over 100 µM. It also gave a TGI [26] of over 100 µM, a GI50 [27] of over 100 µM and a TGI [27] of over 100 µM. For the same molecule, the GI50 [28] was over 100 µM, the TGI [28] was over 100 µM and the GI50 [29] was over 100 µM. The TGI [29] was over 100 µM, the GI50 [30] was over 100 µM and the TGI [30] was over 100 µM. The GI50 [31] was over 100 µM, the TGI [31] was over 100 µM and the GI50 [32] was over 100 µM. It also gave a TGI [32] of over 100 µM, a GI50 [33] of over 100 µM and a TGI [33] of over 100 µM. For the same molecule, the GI50 [34] was over 100 µM, the TGI [34] was over 100 µM and the GI50 [35] was over 100 µM. It also gave a TGI [35] of over 100 µM, a GI50 [36] of over 100 µM and a TGI [36] of over 100 µM. For the same molecule, the GI50 [37] was over 100 µM, the TGI [37] was over 100 µM and the GI50 [38] was over 100 µM. For the same molecule, the TGI [38] was over 100 µM, the GI50 [39] was over 100 µM and the TGI [39] was over 100 µM. It also gave a GI50 [40] of over 100 µM, a TGI [40] of over 100 µM and a GI50 [41] of over 100 µM. The TGI [41] was over 100 µM, the GI50 [42] was over 100 µM and the TGI [42] was over 100 µM. The GI50 [43] was over 100 µM, the TGI [43] was over 100 µM and the GI50 [44] was over 100 µM. For the same molecule, the TGI [44] was over 100 µM, the GI50 [45] was over 100 µM and the TGI [45] was over 100 µM. For the same molecule, the GI50 [46] was over 100 µM, the TGI [46] was over 100 µM and the GI50 [47] was over 100 µM. It also gave a TGI [47] of over 100 µM, a GI50 [48] of over 100 µM and a TGI [48] of over 100 µM. The GI50 [49] was over 100 µM, the TGI [49] was over 100 µM and the GI50 [50] was over 100 µM. The TGI [50] was over 100 µM, the GI50 [51] was over 100 µM and the TGI [51] was over 100 µM. The GI50 [52] was over 100 µM, the TGI [52] was over 100 µM and the GI50 [53] was over 100 µM. The TGI [53] was over 100 µM, the GI50 [54] was over 100 µM and the TGI [54] was over 100 µM. It also gave a GI50 [55] of over 100 µM, a TGI [55] of over 100 µM and a GI50 [56] of over 100 µM. It also gave a TGI [56] of over 100 µM, a GI50 [57] of over 100 µM and a TGI [57] of over 100 µM. The GI50 [58] was over 100 µM, the TGI [58] was over 100 µM and the GI50 [59] was over 100 µM. For the same molecule, the TGI [59] was over 100 µM, the GI50 [60] was over 100 µM and the TGI [60] was over 100 µM.
